# Ab-14 heavy chain CDR variants: yeast mating affinities

Reference: Li et al. 2023, doi:10.1038/s41467-023-39022-2. File: FLAb, binding data.

Target: peptide PDVDLGDISGINAS, taken from heptad repeat 2 (HR2) of SARS-CoV-2 spike.

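Designed CDR sequences, proposed from the first random library and measured here. Several design methods are mixed in this list. AlphaSeq pools MATa yeast showing the antibodies with MATalpha yeast showing the peptide. After mating in shaken culture at 30 °C for 16 h, diploids were selected and their barcode pairs sequenced. Each replicate has its own calibration line, from reference interactions of the BCL2 family. Mating was done six times.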

Ab-14 is the parent antibody, in scFv form: VH, then three GGGGS repeats, then VL. The light chain is unchanged in all variants.
VH: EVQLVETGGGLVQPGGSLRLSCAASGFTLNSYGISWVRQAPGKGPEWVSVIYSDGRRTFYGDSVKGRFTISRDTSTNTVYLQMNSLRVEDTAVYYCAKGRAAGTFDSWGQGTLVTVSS
VL: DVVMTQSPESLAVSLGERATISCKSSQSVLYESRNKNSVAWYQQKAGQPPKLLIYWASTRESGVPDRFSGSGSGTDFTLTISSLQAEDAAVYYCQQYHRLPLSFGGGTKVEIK

Each variant is given by its three heavy chain CDRs, as the data file delimits them; those of the parent are GFTLNSYGIS, VIYSDGRRTFYGDSVK, GRAAGTFDS.
Variants here have more than six changes.
Values are apparent Kd, the geometric mean of the replicates that gave a signal; lower means stronger binding.
"no signal" means that the variant was in the library but no mating with the target was seen in any replicate; the authors take this as a sign of poor binding, and no number exists.
The authors' rule: three or more of the six replicates give a measured affinity, fewer mean a poor binder.
Nonspecific signal, from three strains lacking the peptide, appeared in 1% of pairings of all heavy chain designs, centred on 120 nM (5% of these signals below 7.0 nM); values are not corrected for it.
Of ten entries with the parent sequence, four were seen in most replicates (averages 2.2 nM to 240 nM), three in one and three in none, so single entries are noisy.
Values of this round are not directly comparable with the first-round values of the same sequences.

For GNTLDEYGIS | VIYADGTRTFYIDDVK | GQMGGNGYV, the assay gave no signal (0 of 6 replicates). The variant GFNLEEYGIS | VIYADGSRSSYIESVK | GHWNADFIL showed no signal (0 of 6 replicates). With GFDINEYGIS | VIFADGMRTAYDNSVK | GQMAGFFIN the result was 500 nM (1 of 6 replicates). For GFDLNEYGIS | VIYADGQRTAYADSVK | GGNAGTFDM, the assay gave 1.1 nM (6 of 6 replicates). With GFDLNEYGIS | VIYADGKRTAYLDSVK | GQLAGTFDT the result was 400 pM (6 of 6 replicates).

The variant GFDLDEYGIS | VIYADGMRTAYTDSVK | GNVAGTFDI showed 200 pM (6 of 6 replicates). For GFDLNEYGIS | VIYADGRRTAYTDSVK | GETAGTFDV, the assay gave 660 pM (5 of 6 replicates). For GFDLDEYGIS | VIYADGMRTYYADDVK | GNNAGTFDV, the assay gave 1.8 nM (6 of 6 replicates). The variant GFDLNEYGIS | VIYADGMRTFYSDSVK | GENAGFFDS showed 720 pM (6 of 6 replicates). With GEDLQEYGVS | VIYADGRRMVYINSVK | GGSTGTFDF the result was no signal (0 of 6 replicates).

For GYDIEEYGIS | VIYADGKRNAYANMVK | GKWAGAFVD, the assay gave no signal (0 of 6 replicates). For GFSLDEYGIS | VIYADGQRTFYADDVK | GNVAGTFDV, the assay gave 9.1 nM (6 of 6 replicates). The variant GFDLDEYGIS | VIYADGMRTAYSDKVK | GENAGTFDL showed 1.2 nM (6 of 6 replicates). With GFDLNEYGIS | VIYADGVRTAYSDSVK | GNQAGTFDI the result was 650 pM (6 of 6 replicates). The variant GFDLNEYGIS | VIYADGRRTAYADSVK | GNVAGTFNV gave 370 pM (6 of 6 replicates).

The variant GFDLDEYGIS | VIYADGKRTAYADSVK | GQVAGTFDT gave 450 pM (6 of 6 replicates). For GFDLNEYGIS | VIYADGVRTFYTDSVK | GQNAGTFDV, the assay gave 91 pM (6 of 6 replicates). The variant GFTLNSYGIS | VIYSDGRRTSYGDDVK | GNLAGEFAM showed no signal (0 of 6 replicates). With GFDLNEYGIS | VIYADGRRTQYIDSVK | GNEAGTFDK the result was 560 pM (6 of 6 replicates). The variant GFDLNEYGIS | VIYADGMRKVYADSVK | GNQAGTFDV gave 750 pM (6 of 6 replicates).

The variant GFDLDEYGIS | VIYADGKRTAYIDSVK | GETAGTFDV showed 260 pM (6 of 6 replicates). The variant GFDIDEYGVS | VIYADGFREAYAESVK | GLQQFGFTV gave 1.1 nM (6 of 6 replicates). With GFDLENQGVS | VIYADGKRAAYSDNVK | GYSTGFIDV the result was no signal (0 of 6 replicates). With GFDLNEYGIS | VIYADGKRTAYADSVK | GNEAGTFDV the result was 400 pM (6 of 6 replicates). With GFNLNEVGIS | VIYADGLRSAYVDSVK | GGVVGVDFV the result was 39 nM (2 of 6 replicates).

With GFDLNEYGIS | VIYADGMRTFYADDVK | GTNAGTFDV the result was 120 pM (6 of 6 replicates). With GVNLDEYGIS | VIYADGVRQHYTDSVK | GTHGDFGVV the result was no signal (0 of 6 replicates). With GFDLDEYGIS | VIYADGKRTAYTDSVK | GNVAGTFDI the result was 9.7 nM (1 of 6 replicates). The variant GFNLDEYGIS | VIYADGVRKAYANSVK | GKVHWFHLQ showed no signal (0 of 6 replicates). The variant GFDINEYGIS | VIYADGRRTFYADSVK | GQTAGTFDN showed 290 pM (6 of 6 replicates).

The variant GFDLDEYGIS | VIYADGQRTAYSDSVK | GEVAGTFDQ gave 660 pM (6 of 6 replicates). The variant GFDLNEYGIS | VIYADGRRTFYADSVK | GNVAGTFTS gave 1.5 nM (6 of 6 replicates). With GFDLNEYGIS | VIYADGRRTFYADSVK | GNVAGTFDT the result was 370 pM (6 of 6 replicates). With GFDLNEYGIS | VIYADGRRTFYSDSVK | GENAGFFDV the result was no signal (0 of 6 replicates). For GFDLDEYGIS | VIYADGRRTFYQDDVK | GNVAGTFDV, the assay gave 380 pM (6 of 6 replicates).

For GFSLDEYGIS | VIYADGVRKHYADSVK | GNIDGYYFA, the assay gave no signal (0 of 6 replicates).

For reference, 5 entries of the list once more:

The variant GFDLNEYGIS | VIYADGRRTAYTDSVK | GETAGTFDV gave 660 pM (5 of 6 replicates).
The variant GFDLNEYGIS | VIYADGRRTFYADSVK | GNVAGTFDT gave 370 pM (6 of 6 replicates).
The variant GFDLDEYGIS | VIYADGMRTAYSDKVK | GENAGTFDL gave 1.2 nM (6 of 6 replicates).
The variant GFSLDEYGIS | VIYADGVRKHYADSVK | GNIDGYYFA gave no signal (0 of 6 replicates).
The variant GYDIEEYGIS | VIYADGKRNAYANMVK | GKWAGAFVD gave no signal (0 of 6 replicates).